Reference: patent publication US20110154874A1, “MIXTURE FOR THE TREATMENT OF UREA-CONTAINING FERTILIZERS” (FERTIVA GmbH, priority 2007, published 2011)

Tested on: Chinese cabbage
Conditions: in vivo

## calcium ammonium nitrate [Calcium ammonium nitrate (CAN)]
  % plant damage 5 days after planting: 0%
